Reference: PMC12702776, “New insights into the classification of the RAC1 P29S hotspot mutation in melanoma as an oncogene” (Cancer Gene Therapy, 2025)

How the values were obtained:
Settings in all cases: both partners purified
RAC1^F28L, purified = RAC1^F28L, purified (human, UniProt P63000 1-192, F28L); assay: stopped-flow fluorimetry; 0.1 µM mGppNHp-bound RAC1 rapidly mixed with increasing concentrations of GST-PAK1 RBD (association); RAC1•mGppNHp•GST-PAK1 RBD complex mixed with excess GppNHp-bound RAC1 (dissociation); Kd = koff/kon
RAC1^P29S, purified [1] = target: T1, RAC1^P29S, purified (human, UniProt P63000 1-192, P29S); assay: as above
RAC1^P29S, purified [2] = target: T1, RAC1^P29S, purified; assay: fluorescence polarisation; 1 µM mGppNHp-bound RAC1 titrated with GST-PAK1 RBD; 30 mM Tris-HCl pH 7.5, 50 mM NaCl, 5 mM MgCl2, 3 mM DTT, 25 °C; quadratic ligand binding equation

fold slower koff against RAC1^P29S (RAC1^F28L, purified): 34 fold
fold slower koff against RAC1^WT (RAC1^F28L, purified): 66 fold
fold slower kon against RAC1^WT (RAC1^F28L, purified): 40 fold
fold decrease of binding affinity against RAC1^WT (RAC1^P29S, purified [1]): 5 fold
fold slower kon against RAC1^WT (RAC1^P29S, purified [1]): 10 fold
fold decrease of binding affinity against RAC1^WT (RAC1^P29S, purified [2]): 7.5 fold
B1: GST-PAK1 RBD (RAC1 binding domain of p21-activated kinase 1) (domain or fragment)
chain: SILPGDKTNKKKEKERPEISLPSDFEHTIHVGFDAVTGEFTGMPEQWARLLQTSNITKSEQKKNPQAVLDVLEFYNSKKTSNSQK
notes: not shown: GST, N-terminal, kept
